Biological target: full-length human PHD2 (Homo sapiens (Human), UniProt Q9GZT9)
Assay: TR-FRET assay for PHD enzymes, PHD2
Details: read-out: Km of 2-OG for PHD2

By UniProt entry, the sequences of proteins in these tests, tags left out. Where a name states a change or a piece, a line headed by the entry shows the natural chain unless it says otherwise.
UniProt Q9GZT9: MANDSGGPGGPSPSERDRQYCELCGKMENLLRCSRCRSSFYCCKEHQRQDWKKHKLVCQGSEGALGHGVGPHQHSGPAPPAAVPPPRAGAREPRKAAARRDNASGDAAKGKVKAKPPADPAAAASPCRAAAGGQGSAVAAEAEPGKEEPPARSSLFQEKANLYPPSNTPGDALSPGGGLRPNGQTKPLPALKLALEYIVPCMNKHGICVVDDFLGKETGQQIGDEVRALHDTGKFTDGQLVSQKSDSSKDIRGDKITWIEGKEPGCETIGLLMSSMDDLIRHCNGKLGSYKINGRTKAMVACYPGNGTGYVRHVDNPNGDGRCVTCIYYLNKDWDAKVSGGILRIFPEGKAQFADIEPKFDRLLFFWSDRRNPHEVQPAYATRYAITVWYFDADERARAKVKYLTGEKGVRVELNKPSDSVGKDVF

O=C(O)CCC(=O)C(=O)O [Compound 2-OG, 2-oxoglutarate, reference compound]
Km: 0.0226 µM

Reference: patent US20230295110A1, “PHD INHIBITOR COMPOUNDS, COMPOSITIONS, AND METHODS OF USE” (Akebia Therapeutics, Inc., priority 2020, published 2023)
